Test results: publication PMC9855794, “The Photobiomodulation of MAO-A Affects the Contractile Activity of Smooth Muscle Gastric Tissues” (Biomolecules, 2022)

Chains of the proteins cited; added tags and fusions are not shown.
UniProt P21397, whole entry: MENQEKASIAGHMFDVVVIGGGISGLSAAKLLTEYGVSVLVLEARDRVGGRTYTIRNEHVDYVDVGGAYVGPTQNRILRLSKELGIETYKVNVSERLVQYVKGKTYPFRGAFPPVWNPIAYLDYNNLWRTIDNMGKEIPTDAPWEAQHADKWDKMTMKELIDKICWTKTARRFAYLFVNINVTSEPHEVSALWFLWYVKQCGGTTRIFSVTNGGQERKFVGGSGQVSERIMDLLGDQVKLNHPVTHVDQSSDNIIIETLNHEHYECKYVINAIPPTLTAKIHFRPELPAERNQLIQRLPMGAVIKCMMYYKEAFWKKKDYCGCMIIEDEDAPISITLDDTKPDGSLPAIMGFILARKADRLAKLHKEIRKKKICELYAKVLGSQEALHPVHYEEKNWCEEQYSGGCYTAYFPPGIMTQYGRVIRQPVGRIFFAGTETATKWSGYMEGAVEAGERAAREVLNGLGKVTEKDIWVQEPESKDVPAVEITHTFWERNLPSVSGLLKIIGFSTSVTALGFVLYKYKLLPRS

Biological target: T1, MAO-A (Homo sapiens, UniProt P21397)
T1 construct: gene MAOA
Test: fluorimetric H2O2 detection, kinetic, Ex/Em […] nm, […] min
Type: biochemical
Settings: read-out: % inhibition at 10 nM

inhibition at 0.01 µM: 45%
Structure (SMILES): C#CCN(C)CCCOc1ccc(Cl)cc1Cl [clorgyline]
